In the assay the target is Sigma non-opioid intracellular receptor 1 (Homo sapiens, UniProt Q99720). The assay can be described thus: Antagonist activity at sigma 1 receptor (unknown origin).

The IC50 is the concentration that gives 50% inhibition. A lower IC50 goes with greater potency. Molecule `CN1C2CCCC1CC(Nc1ccccc1Br)C2` (stereo unspecified) showed an IC50 of 84 nM.

For the origin of these results see ChEMBL document CHEMBL5325394, “What We Have Gained from Ibogaine: α3β4 Nicotinic Acetylcholine Receptor Inhibitors as Treatments for Substance Use Disorders” (J Med Chem, 2023).
